Experimental data published in patent US20240409594A1, “PHOTOA[…] CHANNEL MODULATOR” (INSTITUT NATIONAL DE LA SANTÉ ET DE LA RECHERCHE MÉDICALE, priority 2021, published 2024).

Target: human NaV1.4 channel (human) (UniProt P35499)
Experiment: cell-based or functional assay

## Jingzhaotoxin V (peptide)
  IC50 of hNaV1.4 current inhibition: 50.1 nM
